We go through 45 molecules from PubChem BioAssay AID1479 (National Center for Advancing Translational Sciences (NCATS), 2009).

This test can be described thus: Total Fluorescence Counterscreen for Inhibitors of the Interaction of Thyroid Hormone Receptor and Steroid Receptor Coregulator 2. To be noted: TRb/SRC2 Texas Red total fluorescence interference. Background: Counterscreens check selectivity or assay interference.

SMILES strings stand for the structures. The list shows a part of the results, in another mix than the full data. Active and inactive are the calls of the source. The call rests on the fitted dose curve; in most records, active means well fitted curve in either direction with a large enough effect; inconclusive means small, poorly fitted or top-dose-only effect; inactive means flat fitted curve, though single readings scatter.
On the % scale 0 is the no-effect control and ±100 the full control effect.

For `CCOC(=O)c1ccc(NP(C)(=O)Oc2ccc(F)cc2)cc1` (centres undefined), under “at 106 µM (top of the series)”, the fluorescence change, negative = quenching is inactive: -1.3%. As to `COc1ccc(OP(C)(=O)Nc2ccc(SC(F)(F)F)cc2)cc1` (centres undefined), the fluorescence change, negative = quenching (at 106 µM (top of the series)) is inactive: -1.02%. As for `Cc1cccc([N+](=O)[O-])c1[N+](=O)[O-]`, the fluorescence change, negative = quenching reads like this: (at 106 µM (top of the series)) inactive: 0.0962%; (at 201 µM (top of the series)) inactive: -1.31%.

Take `CCC(C)(OO)OOC(C)(CC)OO` (centres undefined): the fluorescence change, negative = quenching (at 106 µM (top of the series)) is inactive: 0.674% and the fluorescence change, negative = quenching (at 201 µM (top of the series)) was inactive: -2.71%. Regarding `O=C(OCCN1CCN(CCOCc2ccccc2)CC1)C(O)(c1ccccc1)c1ccccc1`, where the note is “at 53 µM (top of the series)”, the fluorescence change, negative = quenching was inactive: -0.404%. As to `CP(=O)(Nc1ccccc1F)Oc1ccccc1` (centres undefined), the fluorescence change, negative = quenching (at 106 µM (top of the series)) was inactive: 0.499%. Same read-out and setting: in the case of `CC(C)c1ccc(OP(C)(=O)Nc2ccc(SC(F)(F)F)cc2)cc1` (centres undefined) it was inactive: 0.0092%; in that of `[NH4+].[O-][Cl+3]([O-])([O-])[O-]`, inactive: -1.85%; in that of `Cc1ccccc1NP(C)(=O)Nc1ccccc1C`, inactive: -4.74%.

In the case of `CP(=O)(Nc1ccc2c(c1)OCCO2)Oc1ccccc1` (centres undefined), where the note is “at 106 µM (top of the series)”, the fluorescence change, negative = quenching is inactive: -6.5%.

Take `CCOP(C)(=S)SCC(=O)NC(C)(CC)C(=O)O` (centres undefined): under “at 106 µM (top of the series)”, the fluorescence change, negative = quenching was inactive: -4.27%.

As for `CCOP(=O)(CC)OCC`, the fluorescence change, negative = quenching (at 106 µM (top of the series)) is inactive: -0.855%. Regarding `CP(=O)(Nc1ccc(SC(F)(F)F)cc1)Oc1ccc(F)cc1` (centres undefined), for the setting “at 106 µM (top of the series)”, the fluorescence change, negative = quenching is inactive: -2.2%. Consider `O=[N+]([O-])c1ccc(OP2(=O)COCCO2)cc1` (centres undefined), for which, under “at 106 µM (top of the series)”, the fluorescence change, negative = quenching was inactive: -2.45%.

For the molecule `Cc1cc(-c2cccc3ccccc23)c(C)cn1.O=[N+]([O-])c1cc([N+](=O)[O-])c(O)c([N+](=O)[O-])c1`, for the setting “at 106 µM (top of the series)”, the fluorescence change, negative = quenching was inactive: -1.75%. Turning to `Cc1ccc([N+](=O)[O-])c([N+](=O)[O-])c1`, the fluorescence change, negative = quenching is, setting by setting: (at 106 µM (top of the series)) inactive: -0.724%; (at 201 µM (top of the series)) inactive: -5.25%.

`Cc1c([N+](=O)[O-])cccc1[N+](=O)[O-]`: the fluorescence change, negative = quenching by setting is: (at 106 µM (top of the series)) inactive: -1.47%; (at 201 µM (top of the series)) inactive: -3.38%. Take `COc1ccc(NP(C)(=O)Oc2ccccc2OC)cc1` (centres undefined): the fluorescence change, negative = quenching (at 106 µM (top of the series)) was inactive: 0.681%. Regarding `COc1ccc(OP(C)(=O)Nc2cccc(Br)c2)cc1` (centres undefined), for the setting “at 106 µM (top of the series)”, the fluorescence change, negative = quenching is inactive: -5.58%.

In the case of `C/C1=C2N=C(/C=C3N=C(/C(C)=C4\[N-][C@@](C)([C@H]5N=C1[C@@](C)(CCC(=O)NC[C@H](C)OP(=O)([O-])O[C@@H]1[C@H](O)[C@H](n6cnc7cc(C)c(C)cc76)O[C@@H]1CO)[C@@H]5CC(N)=O)[C@](C)(CC(N)=O)[C@H]4CCC(N)=O)[C@@](C)(CC(N)=O)[C@@H]\3CCC(N)=O)C(C)(C)[C@@H]/2CCC(N)=O.[C-]#N.[Co+3]`, under “at 53 µM (top of the series)”, the fluorescence change, negative = quenching is inactive: -2.3%. As to `CCOC(=O)c1ccc(NP(C)(=O)Oc2ccc(Cl)cc2)cc1` (centres undefined), under “at 106 µM (top of the series)”, the fluorescence change, negative = quenching is inactive: -2.96%. Turning to `CP(=O)(OC12CC3CC(CC(C3)C1)C2)OC12CC3CC(CC(C3)C1)C2`, the fluorescence change, negative = quenching (at 106 µM (top of the series)) was inactive: -0.231%. `CN(C)C(=O)c1c([N+](=O)[O-])cc([N+](=O)[O-])cc1[N+](=O)[O-]`: the fluorescence change, negative = quenching (at 106 µM (top of the series)) was inactive: -2.7%. Turning to `CC(C)(C)c1ccc(OP(C)(=O)O)cc1`, the fluorescence change, negative = quenching (at 106 µM (top of the series)) is inactive: -2.64%. For `COc1ccccc1OP(C)(=O)Nc1ccccc1Br` (centres undefined), for the setting “at 106 µM (top of the series)”, the fluorescence change, negative = quenching was inactive: -4.05%.

As for `CP(=O)(Nc1ccc(Cl)cc1)Oc1ccc(F)cc1` (centres undefined), the fluorescence change, negative = quenching (at 106 µM (top of the series)) is inactive: -0.0772%. As for `OCCSCCO`, where the note is “at 106 µM (top of the series)”, the fluorescence change, negative = quenching was inactive: -1.67%. For the molecule `COc1ccccc1OP(C)(=O)Nc1c(C)n(C)n(-c2ccccc2)c1=O` (centres undefined), under “at 106 µM (top of the series)”, the fluorescence change, negative = quenching was inactive: -0.434%. As to `CCc1ccc(OP(C)(=O)Nc2cccnc2)cc1` (centres undefined), the fluorescence change, negative = quenching (at 106 µM (top of the series)) is inactive: -4.32%. As for `CP(=O)(Oc1ccccc1)N1CCOC1=O` (centres undefined), the fluorescence change, negative = quenching (at 106 µM (top of the series)) was inactive: 0.36%. Consider `COc1ccc(OP(C)(=O)Nc2ccc(Br)cc2)cc1` (centres undefined), for which the fluorescence change, negative = quenching (at 106 µM (top of the series)) is inactive: -1.16%. In the case of `COc1ccccc1OP(C)(=O)Nc1ccc(C)cc1C` (centres undefined), the fluorescence change, negative = quenching (at 106 µM (top of the series)) is inactive: -1.64%. As for `CP(=O)(Nc1ccccn1)Oc1ccccc1` (centres undefined), for the setting “at 106 µM (top of the series)”, the fluorescence change, negative = quenching is inactive: 3.82%. Same read-out and setting: under `CCc1ccc(OP(C)(=O)O)cc1` stands inactive: 0.0137%. With `O=[N+]([O-])c1cc([N+](=O)[O-])c(Nc2ccccn2)c([N+](=O)[O-])c1`, where the note is “at 106 µM (top of the series)”, the fluorescence change, negative = quenching was inactive: -0.265%. With `Cc1c(NP(C)(=O)Oc2ccc(C(C)C)cc2)c(=O)n(-c2ccccc2)n1C` (centres undefined), the fluorescence change, negative = quenching (at 106 µM (top of the series)) was inactive: -1.18%.

`COc1ccc(OP(C)(=O)Nc2ccccn2)cc1` (centres undefined): the fluorescence change, negative = quenching (at 106 µM (top of the series)) is inactive: 1.11%. On the same count and under the same terms, under `CN(C)CCOC(=O)C(O)(c1ccccc1)C1CCCC1` (centres undefined) stands inactive: -0.648%. Turning to `COc1ccccc1OP(C)(=O)Nc1ccc(Br)cc1` (centres undefined), the fluorescence change, negative = quenching (at 106 µM (top of the series)) was inactive: -5.01%.

As for `CP(=O)(OCCOc1ccccc1)OCCOc1ccccc1`, where the note is “at 106 µM (top of the series)”, the fluorescence change, negative = quenching is inactive: -5.03%. Still for that read-out and setting: in the case of `CP(=O)(Nc1ccc(Cl)cc1Cl)Oc1ccccc1` (centres undefined) it was inactive: 0.415%.

In the case of `Cc1nc2ccc3ccccc3c2o1.O=[N+]([O-])c1cc([N+](=O)[O-])c(O)c([N+](=O)[O-])c1`, under “at 106 µM (top of the series)”, the fluorescence change, negative = quenching was inactive: -17.8%. In the case of `COc1ccccc1OP(C)(=O)Nc1ccc(C)c(C)c1` (centres undefined), the fluorescence change, negative = quenching (at 106 µM (top of the series)) is inactive: -1.32%.

On to `COc1ccc(OP(C)(=O)Nc2ccccc2Br)cc1` (centres undefined), for which, under “at 106 µM (top of the series)”, the fluorescence change, negative = quenching is inactive: -0.892%.

With `Cc1cc(C)cc(OP(C)(=O)Nc2cccc(C(F)(F)F)c2)c1` (centres undefined), the fluorescence change, negative = quenching (at 53 µM (top of the series)) is inactive: -2.11%.
